Only some compounds are listed: those with a hit (about 1.2% of all), similar ones and a draw of the others.
UUG fidelity: yeast start codon fidelity modulation; AID 602363; activity score, % at 18.7 µM; S. cerevisiae UUG-firefly luciferase reporter, luminescence/redox ratio; 0.13% of 350,000 active;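 active means replicate mean at a twofold rise or more, about +100% in these data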;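 further: firefly luciferase made from a UUG start codon reports start codon fidelity; reporter light over untreated wells divided by growth signal over untreated wells; some hits fall short of that in this replicate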
Glyco luc inh: blocks N-linked glycosylation in D54 reporter cells; D54 ERlucT glycosylation luciferase reporter, 24 h; percent of 100 nM tunicamycin response; reporter increase, % at 12.5 µM; hit rate 0.23% among 360,000;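 active means mean luciferase reporter signal, scaled so untreated is 0 and the glycosylation-blocking control 100, at or above a set limit in every replicate; inconclusive means mean reaches the limit but not every replicate does; inactive means mean below the limit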;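 further: luciferase carries N-glycosylation sites so blocking glycosylation raises the light; 0% = median of neutral control wells and 100% = median of 100 nM tunicamycin wells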
miR-122 sensor: miR-122 inhibition in Huh7 cells; activation (reporter increase), % at 12.5 µM; hit rate 0.3% among 340,000; Huh7 miR-122 Renilla luciferase sensor, 48 h; neutral wells = 0, positive control = 100; AID 602342;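 active means mean replicate activation score at least 90 and every replicate individually at or above 90; inconclusive means only one of the two criteria met; inactive means neither criterion met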;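 further: higher luciferase means less miR-122 activity so hits act as miR-122 inhibitors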
Cneo AK release: causes C. neoformans cell lysis; adenylate kinase release luminescence, 4 h; normalised: neutral wells 0, clomiphene wells 100; lysis activity, % at 15 µM; hit rate 0.2% among 360,000;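 active means mean lysis activity across replicates of at least 80%, whatever share of replicates individually reach that level; inactive means mean lysis activity below 80%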
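Material – Cryptococcus neoformans yeast cells · Quantity – 5 × 10^6 yeast cells/mL · Buffer or medium – YPD medium · Compound – single dose · Timing – 4 h static compound exposure, 37 °C, read 1 h post-reagent · Signal – adenylate kinase release luminescence · Read-out basis – lysis from increased AK signal · Benchmarks – Clomiphene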
Statin myotox sup: protects C2C12 myotubes from simvastatin toxicity. ATP luminescence, 48 h; scaled: DMSO 0, geranylgeraniol control 100. rescue of ATP level, % at 7.49 µM. hit rate 0.78% among 330,000. AID 602340;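 active means mean ATP rescue above about 67%, or every replicate alone reaching that limit, limit read from the data, passing the limit was not always enough; inconclusive means no clear call, values can overlap the other calls; inactive means mean under the limit and some replicate under it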;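 further: myotubes were challenged with 10 µM simvastatin during compound exposure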
* = called active by the depositor; u = inconclusive; x = no result; ! = a repeat was not active; [ ] = another dose, or the depositor's remark.

The first three entries as a preview:
Each structure is followed by: Statin myotox sup	Glyco luc inh	UUG fidelity	miR-122 sensor	Cneo AK release
[1] C[C@H]1CN([C@@H](C)CO)C(=O)Cc2cc(NS(=O)(=O)c3ccc(F)cc3)ccc2O[C@H]1CN(C)S(=O)(=O)c1ccc(F)cc1
    -17	x	24	24[16.7 µM]	100*
[2] COc1ccc(S(=O)(=O)N(C)C[C@@H]2Oc3ccc(NS(=O)(=O)c4ccc(Cl)cc4)cc3CC(=O)N([C@@H](C)CO)C[C@H]2C)cc1
    73*	x	-9	-8[16.7 µM]	15
[3] Cc1ccc(S(=O)(=O)N(C)C[C@@H]2Oc3ccc(NS(=O)(=O)c4ccc(Cl)cc4)cc3CC(=O)N([C@H](C)CO)C[C@H]2C)cc1
    42	x	-4	0[16.7 µM]	2

The whole of this part (from the top)
Each structure is followed by: Statin myotox sup	Glyco luc inh	UUG fidelity	miR-122 sensor	Cneo AK release
[1] C[C@H]1CN([C@@H](C)CO)C(=O)Cc2cc(NS(=O)(=O)c3ccc(F)cc3)ccc2O[C@H]1CN(C)S(=O)(=O)c1ccc(F)cc1
    -17	x	24	24[16.7 µM]	100*
[2] COc1ccc(S(=O)(=O)N(C)C[C@@H]2Oc3ccc(NS(=O)(=O)c4ccc(Cl)cc4)cc3CC(=O)N([C@@H](C)CO)C[C@H]2C)cc1
    73*	x	-9	-8[16.7 µM]	15
[3] Cc1ccc(S(=O)(=O)N(C)C[C@@H]2Oc3ccc(NS(=O)(=O)c4ccc(Cl)cc4)cc3CC(=O)N([C@H](C)CO)C[C@H]2C)cc1
    42	x	-4	0[16.7 µM]	2
[4] C[C@@H]1CN([C@H](C)CO)C(=O)Cc2cc(NS(=O)(=O)c3ccc(F)cc3)ccc2O[C@H]1CN(C)CC1CCCCC1
    108*	x	25	5[16.7 µM]	44
[5] COc1ccc(C(=O)OCC(=O)N2CCN(C(=O)c3ccco3)CC2)cc1OC
    88*	-1	-5	-8	1
[6] O=C(Nc1ccc(S(=O)(=O)NCCc2ccccc2)cc1)c1ccncc1
    x	-2	-10	x	15
[7] CC(=O)Nc1ccc(S(=O)(=O)NCCc2ccc(S(N)(=O)=O)cc2)cc1
    0	2	-16	226*	-11
[8] O=C(Nc1ccc(S(=O)(=O)NCCc2ccccc2)cc1)c1ccco1
    33	-3	x	365*	x
[9] C[C@@H]1CCCCO[C@@H](CN(C)Cc2ccc3c(c2)OCO3)[C@@H](C)CN([C@H](C)CO)C(=O)c2cc(NS(=O)(=O)c3cn(C)cn3)ccc2O1
    28	x	-2	1[16.7 µM]	-5
[10] Cc1ccc(C)c(NC(=O)C2CC3c4ccccc4C2c2ccccc23)c1 (stereo not drawn)
    130*	-2	-5	-3	-2
[11] Cc1ccc(C)c(NC(=O)C2CC=CCC2C(=O)O)c1 (stereo not drawn)
    -4	1	-6	-3	1
[12] Cc1ccccc1S(=O)(=O)NCC[C@@H]1CC[C@H](NC(=O)Nc2cccc(F)c2)[C@H](CO)O1
    3	x	0	x	1
[13] COc1ccc(CN(C)C[C@H]2Oc3ccc(NC(=O)CCC(F)(F)F)cc3C(=O)N([C@H](C)CO)C[C@@H]2C)cc1
    2	x	3	-3[16.7 µM]	-3
[14] CCN(CC)Cc1c(O)ccc2c1O/C(=C\C=C\c1ccccc1)C2=O
    106*	-4	8	278*	-3
[15] CCNc1ccc(Br)cc(C(=O)/C=C/c2ccc(Cl)cc2Cl)c1=O
    82*	6	-5	-4	-4
[16] CCOC(=O)COc1ccc(C(=O)Nc2cccc(Cl)c2C)cc1
    x	0	x	x	x
[17] CC1=C(N2CCOCC2)CCC1=O
    2	4	-5	x	-4
[18] CC(=O)C1=C(N2CCCCC2)CCC1=O
    95*	1	-18	-9	1
[19] C[C@H](CO)N1C[C@H](C)[C@@H](CN(C)CC2CCCCC2)Oc2c(NC(=O)c3ccncc3)cccc2C1=O
    -19	x	-3	127*[16.7 µM]	-5
[20] C[C@@H]1CN([C@@H](C)CO)C(=O)c2cccc(NC(=O)c3ccncc3)c2O[C@@H]1CN(C)Cc1ccc(Cl)c(Cl)c1
    18	x	-1	-4[16.7 µM]	8
[21] C[C@H](CO)N1C[C@H](C)[C@@H](CN(C)Cc2ccc(Cl)c(Cl)c2)Oc2c(NC(=O)c3ccncc3)cccc2C1=O
    14	-3	4	106*![16.7 µM]	2
[22] C[C@@H]1CN([C@@H](C)CO)C(=O)c2cccc(NC(=O)c3ccncc3)c2O[C@@H]1CN(C)CC1CCCCC1
    -7	x	-14	-1[16.7 µM]	-3
[23] C[C@H]1CN([C@@H](C)CO)C(=O)c2cccc(NC(=O)c3ccncc3)c2O[C@H]1CN(C)CC1CCCCC1
    2	x	x	24[16.7 µM]	-11
[24] C[C@H]1CN([C@@H](C)CO)C(=O)c2cccc(NC(=O)c3ccncc3)c2O[C@@H]1CN(C)CC1CCCCC1
    14	x	-14	91*[16.7 µM]	-9
[25] CCNC(=O)[C@@H]1[C@@H](CO)[C@@H]2Cn3c(ccc(-c4cncnc4)c3=O)[C@H]1N2C(=O)Nc1ccccc1
    -2	x	1	5[16.7 µM]	-4
[26] CN1CCN(c2ccc(Cl)cc2NC(=O)CCN2C(=O)c3ccccc3C2=O)CC1
    x	0	x	x	x
[27] Cn1cnc(S(=O)(=O)N2C[C@H](O)COC[C@H]3O[C@H](CC(=O)NCc4cccc(F)c4)CC[C@@H]32)c1
    15	x	-9	-5[16.7 µM]	3
[28] C[C@@H]1CN([C@@H](C)CO)C(=O)Cc2cc(NS(C)(=O)=O)ccc2O[C@H]1CN(C)Cc1ccc(Cl)c(Cl)c1
    -25	x	x	-20[16.7 µM]	5
[29] C[C@H]1CN([C@@H](C)CO)C(=O)Cc2cc(NS(C)(=O)=O)ccc2O[C@@H]1CN(C)Cc1ccc(Cl)c(Cl)c1
    22	-1	9	36[16.7 µM]	112*!
[30] C[C@H](CO)N1C[C@H](C)[C@@H](CN(C)Cc2ccc(Cl)c(Cl)c2)Oc2ccc(NS(C)(=O)=O)cc2CC1=O
    92*	x	x	1[16.7 µM]	50

Pulled by compound from above, 2 records:
Each structure is followed by: Statin myotox sup	Glyco luc inh	UUG fidelity	miR-122 sensor	Cneo AK release
[27] Cn1cnc(S(=O)(=O)N2C[C@H](O)COC[C@H]3O[C@H](CC(=O)NCc4cccc(F)c4)CC[C@@H]32)c1
    15	x	-9	-5[16.7 µM]	3
[7] CC(=O)Nc1ccc(S(=O)(=O)NCCc2ccc(S(N)(=O)=O)cc2)cc1
    0	2	-16	226*	-11

(listing goes on)
Each structure is followed by: Statin myotox sup	Glyco luc inh	UUG fidelity	miR-122 sensor	Cneo AK release
[31] C[C@@H]1CN([C@H](C)CO)C(=O)Cc2cc(NS(C)(=O)=O)ccc2O[C@@H]1CN(C)Cc1ccc(Cl)c(Cl)c1
    108*	x	x	-5[16.7 µM]	-1
[32] Cc1ccc(S(=O)(=O)N[C@@H]2CC[C@H](CCNC(=O)Nc3ccc(Cl)cc3)O[C@H]2CO)cc1
    -6	x	9	x	0
[33] COCCNC(=O)C[C@H]1C[C@H]2c3cc(NS(=O)(=O)c4ccccc4)ccc3O[C@H]2[C@H](CO)O1
    -2	x	x	1[16.7 µM]	-3
[34] C[C@@H]1CN([C@H](C)CO)C(=O)c2cc(NS(=O)(=O)c3ccc(F)cc3)ccc2O[C@@H]1CN(C)Cc1ccc(-c2ccccc2)cc1
    u	x	5	5[16.7 µM]	10
[35] C[C@@H]1CN([C@@H](C)CO)C(=O)c2cc(NS(=O)(=O)c3ccc(F)cc3)ccc2O[C@@H](C)CCCCO[C@H]1CN(C)S(=O)(=O)c1ccc(F)cc1
    x	x	10	4[16.7 µM]	101*
[36] C[C@@H]1CCCCO[C@@H](CN(C)S(=O)(=O)c2ccc(F)cc2)[C@@H](C)CN([C@@H](C)CO)C(=O)c2cc(NS(=O)(=O)c3ccc(F)cc3)ccc2O1
    x	x	28	47[16.7 µM]	104*
[37] C[C@H]1CN([C@@H](C)CO)C(=O)c2cc(NS(=O)(=O)c3ccc(F)cc3)ccc2O[C@@H]1CN(C)S(=O)(=O)c1ccccc1
    20	x	28	16[16.7 µM]	105*
[38] C[C@@H]1CCCCO[C@@H](CN(C)S(=O)(=O)c2ccc(F)cc2)[C@H](C)CN([C@H](C)CO)C(=O)c2cc(NS(=O)(=O)c3ccc(F)cc3)ccc2O1
    x	x	-5	-5[16.7 µM]	-14
[39] C[C@H]1CN([C@@H](C)CO)C(=O)c2cc(NS(=O)(=O)c3ccccc3)ccc2O[C@@H]1CN(C)S(=O)(=O)c1ccc(F)cc1
    25	x	x	-1[16.7 µM]	x
[40] C[C@@H]1CCCCO[C@@H](CN(C)S(=O)(=O)c2ccc(F)cc2)[C@@H](C)CN([C@H](C)CO)C(=O)c2cc(NS(=O)(=O)c3ccc(F)cc3)ccc2O1
    x	x	-9	11[16.7 µM]	-1
